This note sets out measurements from patent publication US5580865A, “2,2-disubstituted cephem sulphones” (Farmitalia Carlo Erba S.r.l., priority 1992, dated 1996).

For this experiment, the target named is T1, human leukocyte elastase (HLE) (Homo sapiens, UniProt P08246).
T1 construct: purchased Calbiochem
T1 sequence (P08246 30-247 limits assumed): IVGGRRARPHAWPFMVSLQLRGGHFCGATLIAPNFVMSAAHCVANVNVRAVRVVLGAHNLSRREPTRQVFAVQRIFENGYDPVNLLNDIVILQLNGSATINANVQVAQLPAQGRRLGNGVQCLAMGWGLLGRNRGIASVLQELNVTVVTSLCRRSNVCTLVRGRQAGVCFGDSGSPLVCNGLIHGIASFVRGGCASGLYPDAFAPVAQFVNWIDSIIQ
Put plainly: Kinetic parameters of HLE inhibition (fluorogenic substrate, steady-state KI^ss and K5/KI). It counts as biochemical. The settings on record: HLE (Calbiochem), 37° C., pH 7.4 phosphate buffer, 1% DMSO, 1% MeCN; read-out: K5 /KI (rate of formation of the HLE-inhibitor complex).

Turning to `CO[C@H]1C(=O)N2C(C(=O)C(C)(C)C)=C(CSc3nnnn3C)C(Sc3nnnn3C)S(=O)(=O)C12` (stereo partly shown) [Ref. 2, reference compound], the kinact/KI came out at 26000 M⁻¹ s⁻¹.
